Data on 1 molecule can be found in patent US9273040B2 (Merck Sharp & Dohme Corp., priority 2011, dated 2016).

Amino acid sequences for entries named in this document (tags omitted).
UniProt Q14524, whole entry: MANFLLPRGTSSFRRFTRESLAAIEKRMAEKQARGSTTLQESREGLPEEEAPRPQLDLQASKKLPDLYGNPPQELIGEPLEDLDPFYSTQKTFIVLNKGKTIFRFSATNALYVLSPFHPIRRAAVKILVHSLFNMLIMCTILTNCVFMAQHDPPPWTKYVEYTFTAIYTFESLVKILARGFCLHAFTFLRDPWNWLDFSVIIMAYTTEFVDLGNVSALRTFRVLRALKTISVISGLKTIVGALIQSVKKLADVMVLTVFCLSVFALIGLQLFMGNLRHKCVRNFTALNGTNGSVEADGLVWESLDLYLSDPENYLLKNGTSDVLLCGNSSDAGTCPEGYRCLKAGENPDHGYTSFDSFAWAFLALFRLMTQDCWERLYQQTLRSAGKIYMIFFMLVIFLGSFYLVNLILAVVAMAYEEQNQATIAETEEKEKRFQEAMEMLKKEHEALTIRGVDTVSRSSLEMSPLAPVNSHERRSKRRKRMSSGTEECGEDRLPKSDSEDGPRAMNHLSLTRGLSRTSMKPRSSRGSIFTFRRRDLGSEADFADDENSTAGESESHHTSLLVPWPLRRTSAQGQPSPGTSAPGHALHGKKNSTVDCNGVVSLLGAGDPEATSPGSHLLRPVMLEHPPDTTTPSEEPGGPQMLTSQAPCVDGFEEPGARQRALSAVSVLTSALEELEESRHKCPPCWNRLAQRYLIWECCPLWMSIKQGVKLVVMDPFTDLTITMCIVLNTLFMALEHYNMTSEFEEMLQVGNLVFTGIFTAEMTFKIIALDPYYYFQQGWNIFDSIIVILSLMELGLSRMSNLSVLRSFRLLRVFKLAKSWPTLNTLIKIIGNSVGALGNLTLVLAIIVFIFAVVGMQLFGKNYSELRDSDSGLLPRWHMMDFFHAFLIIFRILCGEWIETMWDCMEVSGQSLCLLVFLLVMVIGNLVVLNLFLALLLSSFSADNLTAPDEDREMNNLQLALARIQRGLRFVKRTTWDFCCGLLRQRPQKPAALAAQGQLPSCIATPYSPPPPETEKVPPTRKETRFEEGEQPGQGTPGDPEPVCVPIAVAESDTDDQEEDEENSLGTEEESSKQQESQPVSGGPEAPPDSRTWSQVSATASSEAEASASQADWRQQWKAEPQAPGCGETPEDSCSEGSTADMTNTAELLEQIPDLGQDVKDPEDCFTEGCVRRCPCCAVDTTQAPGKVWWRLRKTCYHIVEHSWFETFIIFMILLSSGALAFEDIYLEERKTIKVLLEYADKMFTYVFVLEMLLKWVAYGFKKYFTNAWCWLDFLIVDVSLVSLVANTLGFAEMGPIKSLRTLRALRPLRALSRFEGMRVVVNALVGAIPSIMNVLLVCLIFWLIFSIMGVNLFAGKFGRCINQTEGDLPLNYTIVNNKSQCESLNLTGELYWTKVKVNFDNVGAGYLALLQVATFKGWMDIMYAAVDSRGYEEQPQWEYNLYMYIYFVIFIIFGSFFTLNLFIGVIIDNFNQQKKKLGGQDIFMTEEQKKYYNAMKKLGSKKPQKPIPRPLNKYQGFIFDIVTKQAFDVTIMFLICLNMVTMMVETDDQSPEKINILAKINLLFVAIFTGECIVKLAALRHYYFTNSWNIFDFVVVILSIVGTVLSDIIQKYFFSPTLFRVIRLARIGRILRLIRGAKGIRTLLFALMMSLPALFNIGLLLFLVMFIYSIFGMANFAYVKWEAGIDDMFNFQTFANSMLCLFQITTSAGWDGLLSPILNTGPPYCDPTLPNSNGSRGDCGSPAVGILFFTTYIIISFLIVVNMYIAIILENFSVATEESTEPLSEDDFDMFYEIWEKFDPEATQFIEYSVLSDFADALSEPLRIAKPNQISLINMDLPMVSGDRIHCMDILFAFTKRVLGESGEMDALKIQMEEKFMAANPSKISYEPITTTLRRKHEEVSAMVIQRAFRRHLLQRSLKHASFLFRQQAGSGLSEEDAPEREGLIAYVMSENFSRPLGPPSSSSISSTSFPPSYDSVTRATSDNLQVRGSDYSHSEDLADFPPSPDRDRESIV
UniProt Q15858, whole entry: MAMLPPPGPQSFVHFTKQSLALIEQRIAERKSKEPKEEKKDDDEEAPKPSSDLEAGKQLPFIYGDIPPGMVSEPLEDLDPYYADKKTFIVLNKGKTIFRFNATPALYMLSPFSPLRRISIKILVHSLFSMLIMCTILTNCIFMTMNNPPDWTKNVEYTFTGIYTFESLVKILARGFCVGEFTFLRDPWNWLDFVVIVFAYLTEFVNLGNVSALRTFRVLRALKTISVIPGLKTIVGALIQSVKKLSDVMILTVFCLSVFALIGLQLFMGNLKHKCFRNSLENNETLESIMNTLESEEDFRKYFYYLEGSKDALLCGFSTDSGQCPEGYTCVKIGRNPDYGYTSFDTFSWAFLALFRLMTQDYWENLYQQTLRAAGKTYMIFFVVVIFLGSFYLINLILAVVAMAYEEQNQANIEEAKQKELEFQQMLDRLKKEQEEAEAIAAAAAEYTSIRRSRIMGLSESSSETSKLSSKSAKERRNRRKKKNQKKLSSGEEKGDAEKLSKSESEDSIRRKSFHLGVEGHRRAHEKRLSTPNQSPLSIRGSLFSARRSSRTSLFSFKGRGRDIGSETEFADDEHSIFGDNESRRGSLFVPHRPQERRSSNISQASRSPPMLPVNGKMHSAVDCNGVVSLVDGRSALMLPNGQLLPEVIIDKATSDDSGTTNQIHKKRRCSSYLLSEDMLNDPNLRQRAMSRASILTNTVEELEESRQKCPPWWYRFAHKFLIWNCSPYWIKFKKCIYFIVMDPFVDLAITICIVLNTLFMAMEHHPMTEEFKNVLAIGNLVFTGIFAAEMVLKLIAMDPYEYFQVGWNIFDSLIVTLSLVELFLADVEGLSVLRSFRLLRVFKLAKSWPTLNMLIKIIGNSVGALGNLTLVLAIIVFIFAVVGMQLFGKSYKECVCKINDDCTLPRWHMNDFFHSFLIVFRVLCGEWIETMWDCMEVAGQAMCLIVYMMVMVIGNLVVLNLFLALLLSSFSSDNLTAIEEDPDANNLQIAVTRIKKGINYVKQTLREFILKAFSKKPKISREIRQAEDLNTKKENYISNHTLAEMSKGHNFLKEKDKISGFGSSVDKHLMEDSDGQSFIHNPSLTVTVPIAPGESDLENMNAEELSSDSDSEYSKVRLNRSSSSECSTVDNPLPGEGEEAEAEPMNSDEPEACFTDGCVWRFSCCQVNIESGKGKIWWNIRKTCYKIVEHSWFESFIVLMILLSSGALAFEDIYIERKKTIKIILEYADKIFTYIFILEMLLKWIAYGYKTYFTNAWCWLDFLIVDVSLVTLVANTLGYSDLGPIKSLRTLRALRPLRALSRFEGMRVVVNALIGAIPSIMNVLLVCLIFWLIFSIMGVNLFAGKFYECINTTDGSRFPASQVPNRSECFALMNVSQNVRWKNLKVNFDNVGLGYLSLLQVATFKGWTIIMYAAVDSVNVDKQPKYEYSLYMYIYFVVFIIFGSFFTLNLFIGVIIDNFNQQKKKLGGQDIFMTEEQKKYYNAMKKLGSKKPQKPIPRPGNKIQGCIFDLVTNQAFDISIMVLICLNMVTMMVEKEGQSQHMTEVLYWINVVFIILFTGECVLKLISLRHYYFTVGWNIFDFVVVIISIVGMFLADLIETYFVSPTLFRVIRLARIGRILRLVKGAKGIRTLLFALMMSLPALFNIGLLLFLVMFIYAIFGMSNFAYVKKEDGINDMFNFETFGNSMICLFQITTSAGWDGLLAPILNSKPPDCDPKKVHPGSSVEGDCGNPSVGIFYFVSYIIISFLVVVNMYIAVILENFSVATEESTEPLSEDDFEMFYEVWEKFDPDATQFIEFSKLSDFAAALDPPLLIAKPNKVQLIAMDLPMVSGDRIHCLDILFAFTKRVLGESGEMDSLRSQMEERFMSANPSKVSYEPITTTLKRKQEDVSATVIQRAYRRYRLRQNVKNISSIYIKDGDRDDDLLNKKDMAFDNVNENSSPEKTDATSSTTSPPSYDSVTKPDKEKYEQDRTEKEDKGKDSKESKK

Assay [1] addresses human Nav1.5 channels stably expressed in HEK 293 cells (Homo sapiens, UniProt Q14524). As to the kind of experiment: PatchXpress 7000 automated patch-clamp, sodium current. The format is cell-based. The conditions noted are these: selectivity over Nav1.5. A general note: The patch-clamp technique gives a direct electrical read-out from membranes.
Assay [2] has as its target human Nav1.7 channels stably expressed in HEK 293 cells (Homo sapiens, UniProt Q15858). Described as above. As to conditions: read-out: potency for the Nav 1.7 sodium ion channel (as measured by PatchXpress), 22° C. The format is cell-based.

For the molecule `Nc1cc2c(Cn3c(=O)oc4cc(S(=O)(=O)Nc5ncns5)ccc43)cccc2cn1`, the “ratio of Nav 1.5:Nav 1.7 potency, determined by PatchXpress measurement” value in assay [1] was 61. In addition, the IC50 in assay [2] worked out at 492 nM.
